Chains of the proteins cited; added tags and fusions are not shown.
UniProt P61073, whole entry: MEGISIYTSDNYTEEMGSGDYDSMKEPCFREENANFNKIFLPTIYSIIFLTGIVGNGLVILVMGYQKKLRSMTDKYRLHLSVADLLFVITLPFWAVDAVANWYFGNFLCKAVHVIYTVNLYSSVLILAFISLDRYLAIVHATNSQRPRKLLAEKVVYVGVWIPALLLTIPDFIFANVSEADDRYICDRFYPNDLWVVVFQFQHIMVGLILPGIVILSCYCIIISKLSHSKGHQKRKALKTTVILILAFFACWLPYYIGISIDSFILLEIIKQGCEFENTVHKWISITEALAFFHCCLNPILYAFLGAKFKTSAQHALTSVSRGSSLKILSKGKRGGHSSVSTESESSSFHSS

In ChEMBL document CHEMBL4725485, “Bivalent Ligand Aiming Putative Mu Opioid Receptor and Chemokine Receptor CXCR4 Dimers in Opioid Enhanced HIV-1 Entry” (ACS Med Chem Lett, 2020):

Biological target: C-X-C chemokine receptor type 4 (Homo sapiens, UniProt P61073)
Experiment: Potency index, ratio of N-[6-[[2-[2-[[(3R,4R,4aS,7R,7aR,12bS)-3-(cyclopropylmethyl)-4a,9-dihydroxy-1,2,4,5,6,7,7a,13-octahydro-4,12-methanobenzofuro[3,2-e]isoquinoline-7-yl]amino]-2-oxo-ethoxy]acetyl]amino]hexyl]-2-[2-[[4-[(E)-[(cyclohexylamino)-[(6,6-dimethyl-5H-imidazo[2,1-b]thiazol-3-yl)methylsulfanyl]methylene]amino]cyclohexyl]methylamino]-2-oxo-ethoxy]acetamide IC50 to test compound IC50 for Displacement of [125I]SDF-1alpha from CXCR4 in human Chem-1 cells measured after 90 mins
Assay type: cell-based

CC1(C)CN2C(CS/C(N)=N\[C@H]3CC[C@H](CNC(=O)COCC(=O)NCCCCNC(=O)COCC(=O)N[C@@H]4CC[C@@]5(O)[C@H]6Cc7ccc(O)c8c7[C@@]5(CCN6CC5CC5)[C@H]4O8)CC3)=CSC2=N1
Ratio IC50: 5
